Data: US10441562B2, “Aromatic farnesyl compound and application thereof” (INSTITUTE OF MICROBIOLOGY, CHINESE ACADEMY OF SCIENCES, priority 2015, dated 2019)

Molecular target: T1, protein tyrosine phosphatase 1B (PTP-1B) (Homo sapiens, UniProt P18031)
T1 sequence (P18031 1-435): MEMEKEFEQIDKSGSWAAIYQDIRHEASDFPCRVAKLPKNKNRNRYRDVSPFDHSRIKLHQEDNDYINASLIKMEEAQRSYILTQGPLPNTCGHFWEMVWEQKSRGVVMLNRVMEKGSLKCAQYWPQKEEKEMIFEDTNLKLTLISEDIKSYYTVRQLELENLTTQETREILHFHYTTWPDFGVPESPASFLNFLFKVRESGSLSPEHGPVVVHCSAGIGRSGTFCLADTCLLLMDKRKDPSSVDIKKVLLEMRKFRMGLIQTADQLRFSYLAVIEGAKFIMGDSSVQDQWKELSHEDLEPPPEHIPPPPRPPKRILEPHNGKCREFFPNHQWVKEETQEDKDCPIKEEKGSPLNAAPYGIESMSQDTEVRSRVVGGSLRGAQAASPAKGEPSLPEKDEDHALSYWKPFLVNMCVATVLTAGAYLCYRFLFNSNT
Conditions: read-out: PTP-1B inhibitory activity, IC50

sodium vanadate [reference compound]
IC50: 1400 nM
